Source: patent US20240124464A1, “SUBSTITUTED FUSED BICYCLIC COMPOUND AS KINASE INHIBITOR AND USE THEREOF” (IMPACT THERAPEUTICS (SHANGHAI), INC, priority 2020, published 2024)
pIC50: −log10 of the molar value.

Chains of the proteins cited; added tags and fusions are not shown.
UniProt O60285, whole entry: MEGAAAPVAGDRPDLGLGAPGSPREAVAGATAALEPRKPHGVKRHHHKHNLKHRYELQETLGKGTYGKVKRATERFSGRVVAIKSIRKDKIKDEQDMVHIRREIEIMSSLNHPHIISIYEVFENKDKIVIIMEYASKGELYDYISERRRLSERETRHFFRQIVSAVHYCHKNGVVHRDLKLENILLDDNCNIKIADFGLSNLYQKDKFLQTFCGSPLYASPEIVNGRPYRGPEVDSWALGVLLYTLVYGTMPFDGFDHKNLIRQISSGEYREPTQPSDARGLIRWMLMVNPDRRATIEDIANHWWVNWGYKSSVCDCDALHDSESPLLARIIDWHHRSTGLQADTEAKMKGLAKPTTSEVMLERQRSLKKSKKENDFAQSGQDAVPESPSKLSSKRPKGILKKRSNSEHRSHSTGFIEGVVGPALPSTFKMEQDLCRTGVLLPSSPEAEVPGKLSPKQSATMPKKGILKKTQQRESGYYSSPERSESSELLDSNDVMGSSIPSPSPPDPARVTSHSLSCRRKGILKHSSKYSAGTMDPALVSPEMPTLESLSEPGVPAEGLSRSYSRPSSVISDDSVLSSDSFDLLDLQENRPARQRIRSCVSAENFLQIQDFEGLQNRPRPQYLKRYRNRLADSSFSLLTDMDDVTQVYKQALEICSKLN
UniProt Q9H093, whole entry: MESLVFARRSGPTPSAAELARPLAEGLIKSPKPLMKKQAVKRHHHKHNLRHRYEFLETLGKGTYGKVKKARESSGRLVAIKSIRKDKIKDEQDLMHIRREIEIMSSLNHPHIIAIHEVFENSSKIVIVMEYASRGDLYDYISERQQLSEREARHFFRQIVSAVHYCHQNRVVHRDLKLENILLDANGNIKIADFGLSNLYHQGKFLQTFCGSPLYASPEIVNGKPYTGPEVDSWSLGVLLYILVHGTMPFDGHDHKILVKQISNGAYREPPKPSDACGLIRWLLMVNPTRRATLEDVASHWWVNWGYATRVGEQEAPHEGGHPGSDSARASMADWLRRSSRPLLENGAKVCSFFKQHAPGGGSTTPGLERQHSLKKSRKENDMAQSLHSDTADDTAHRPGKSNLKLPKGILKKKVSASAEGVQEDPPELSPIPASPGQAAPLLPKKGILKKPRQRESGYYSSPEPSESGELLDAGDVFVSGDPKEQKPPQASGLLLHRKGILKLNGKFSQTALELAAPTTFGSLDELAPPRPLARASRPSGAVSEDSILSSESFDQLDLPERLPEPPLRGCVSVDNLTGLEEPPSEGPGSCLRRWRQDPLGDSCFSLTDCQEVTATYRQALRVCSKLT

Assays:
[1] = target: NUAK1(h) enzyme (Homo sapiens, UniProt O60285); assay: In vitro NUAK1 enzymatic assay (Eurofins Discovery, [γ-33P]-ATP filter assay); assay type: biochemical; conditions: read-out: IC50, inhibitory effect on NUAK1 enzyme activity; 45 μM ATP, 40 min, room temperature
Description: In Vitro Assay to Determine the Inhibitory Effect of Compounds in the Patent on NUAK1 Enzymatic Activity
The in vitro NUAK1 enzymatic assay was carried out at Eurofins Discovery to evaluate the inhibitory effect of the compounds presented in the invention. The assay protocol is as follow: the compound to be tested was mixed with NUAK1(h) enzyme and 300 μM […] substrate in 8 mM MOPS (pH 7.0) buffer containing 0.2 mM EDTA and incubated at room temperature. A Mg/ATP mixture containing 10 mM magnesium acetate and 45 μM [y-33P]-ATP was added to start the reaction. After incubation for 40 min at room temperature, the reaction was terminated by adding 0.5% phosphoric acid. Then, 10 μL of the reaction mix was spotted onto a P30 filter paper followed with four times of wash with 0.425% phosphoric acid solution (4 min each time), and one time wash with methanol. The filter paper was air-dried and counted in a liquid scintillation counter. The values obtained were plotted against the drug concentration and the IC50 was calculated.
Table 1 summarizes the inhibitory effect (IC50) of compounds tested on the NUAK1 enzyme activity in the present invention. ++++ indicates IC50≤10 nM; […]; ++ indicates 100 nM<IC50≤1 μM; + indicates IC50>1 μM.

[2] = target: NUAK2(h) enzyme (Homo sapiens, UniProt Q9H093); assay: In vitro NUAK2 enzymatic assay (Eurofins Discovery, [γ-33P]-ATP filter assay); assay type: biochemical; conditions: read-out: IC50, inhibitory effect on NUAK2 enzyme activity; 45 μM ATP, 40 min, room temperature
Description: In Vitro Assay to Determine the Inhibitory Effect of Compounds in the Patent on NUAK2 Enzymatic Activity
The in vitro NUAK2 enzymatic assay was carried out at Eurofins Discovery to evaluate the inhibitory effect of the compounds presented in the invention. The assay protocol is as follow: the compound to be tested was mixed with NUAK2(h) enzyme and 300 […] substrate in 8 mM MOPS (pH 7.0) buffer containing 0.2 mM EDTA. A Mg/ATP mixture containing 10 mM magnesium acetate and 45 μM [γ-33P]-ATP was added to start the reaction. After incubation for 40 min at room temperature, the reaction was terminated by adding 0.5% phosphoric acid. Then 10 μL of the reaction mix was spotted onto a P30 filter paper. The filter paper was washed four times with 0.425% phosphoric acid with 4 min for each wash, and one time with methanol. The filter paper was air-dried and counted in a liquid scintillation counter. The values obtained were plotted against the drug concentration and the IC50 was calculated.
Table 1 summarizes the inhibitory effect (IC50) of compounds on the NUAK2 enzyme activity in the present invention. ++++ indicates IC50≤10 nM; +++ indicates 10 nM<IC50≤100 nM; ++ indicates 100 nM<IC50≤1 μM; + indicates IC50>1 μM.

## COc1cc(N2CCN(C)CC2)ccc1Nc1ncc2ncc(=O)n(C3CCCC3)c2n1
[1]
  pIC50: < 6.00
[2]
  pIC50: 6.00 to 7.00
